The entries are a selection whose mix differs from that of the whole data set. Inconclusive results are not listed. Some structures show a salt or complex split into parts, the way the source records it. Calls of active or inactive are those of the source. Calls come from the whole dose curve; as a rule, active = well fitted inhibition curve with a large enough effect; inconclusive = small, poorly fitted or top-dose-only effect; inactive = flat fitted curve, though single readings scatter.
Biological target: N-terminal Xaa-Pro-Lys N-methyltransferase 1 (Homo sapiens) (UniProt Q9BV86)
Assay: Primary qHTS for Inhibitors of N-terminal methyltransferase 1 (NTMT1): MTaseGlo Assay;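 note: plate controls were DMSO vehicle for no effect and no enzyme for full effect; nearly all actives have a fitted effect of over 65% in size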
Settings: NTMT1 MTase-Glo SAH luminescence, purified enzyme; at 57.5 µM (top of the series) unless noted
From the text: Assay Submitter (PI): Rong Huang Ph.D.
Purdue University, West Lafayette, IN 47907
The N-terminal methytransferase 1 is the first methyltransferase that methylates protein alpha-N-amines and plays an important role in regulating cell mitosis, chromatin interactions and DNA repair. It is observed to be over-expressed in various cancer patient tissues like malignant melanoma and colorectal cancer tissues. Knockdown of NTMT1 in cancer cells causes cell mitotic defects and enhances sensitivity to DNA damaging chemotherapeutics. […] These critical cellular processes in which NTMT1 is implicated, coupled with emerging links to cellular dysfunction, strengthen the inference that NTMT1 is a compelling novel anticancer target. Progress have been made in understanding the molecular properties of NTMT1 and the biological consequences of protein alpha-N-terminal methylation, but there are no specific small molecule probes available for NTMT1 to fully characterize its MTase activity. To address this unmet need, a panel of assay is created and established to enable quantitative high-throughput screening (qHTS) for novel, potent, and selective small molecule NTMT1 inhibitors. Two orthogonal qHTS that use different reagents (ThioGlo vs. MTaseGlo) are developed for primary robotic screening against the NCATS chemical library of more than 400,000 small molecules. Identified inhibitors are reacquired, validated, and further characterized.
MTaseGlo Assay is a luminescence screen that measure the activity of methyltransferases based on the reaction product S-adenosyl homocysteine (SAH). The substrate SAM is converted to SAH upon enzyme activation. MTase-Glo reagent and detection solution convert SAH to ATP and measure the light from the luciferase reaction.
Materials: NTMT1 enzyme, substrate SPKRIA, control peptide RCC1-6 is provided by the Huang laboratory.
SEQUENCE No. (e.g., 1, 2, 3, etc.); […] (e.g., Cells, Incubation, Reagent, etc.); VALUE; DESCRIPTION
1; Enzyme; 3 uL; Dispense enzyme mixture (final concentrations of 125 nM NTMT1 and 100 uM SAM) into Greiner 1536-well white / solid bottom assay plate (Greiner Bio One, Monroe, NC).
2; Compounds; 23 nL; Compounds and controls were transferred via a Kalypsys Pin Tool (Wako USA) equipped with a 1536-slotted pin array (Wako Automation, Richmond, VA)
3; Incubation; 15 min; Incubate at room temperature
4; Substrate; 1 uL; Dispense 1 uL of substrate at final concentration of 1 uM. Buffer solution was dispensed in control wells. The assay plate was covered with metal lids.
5; Incubation; 30 min; Incubate at room temperature, protected from lights.
6; Reagent; 1 uL; Dispensed 5x MTase-Glo detection reagent (R) into the assay plate. The plate was covered with metal lids.
7; Incubation; 30 min; Incubate the assay plates at room temperature in the dark to allow for SAH to be converted to ADP.
8; Reagent; 5 uL; Dispense 5 uL of 1x MTase-Glo Detection Solution (R) to allow for ADP to be converted to ATP which was then detected with a luciferase reaction.
9; Centrifuge; 15 sec; Centrifuge the assay plate for 15 seconds at 1000 RPM.
10; Incubation; 30 min; Assay plates were incubation at room temperature in the dark.
11; Detection; Luminescence; Plates were read on ViewLux detector (PerkinElmer). Data were normalized to no-enzyme (0% activity) and no-inhibitor (DMSO; 100%) controls, and the resulting percent inhibition data were fitted to a 4-parameter Hill equation using GraphPad Prism.

The chains behind the UniProt entries cited, without tags or fusion partners.
UniProt Q9BV86, whole entry: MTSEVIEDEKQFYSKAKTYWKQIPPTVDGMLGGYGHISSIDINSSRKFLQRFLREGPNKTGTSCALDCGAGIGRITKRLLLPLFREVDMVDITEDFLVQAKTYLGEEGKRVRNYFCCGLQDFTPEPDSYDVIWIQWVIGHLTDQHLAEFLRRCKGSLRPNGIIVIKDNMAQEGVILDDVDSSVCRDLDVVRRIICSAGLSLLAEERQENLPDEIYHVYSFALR

| SMILES | activity change, negative = inhibition |
| --- | --- |
| O=[N+]([O-])c1cccc([N+](=O)[O-])c1 | inactive: 19.2% [at 114 µM] |
| C/C1=C2N=C(/C=C3N=C(/C(C)=C4\N=C(C(CC(N)=O)C4(C)CCC(=O)NCC(C)OP(=O)([O-])OC4C(CO)OC(n5cnc6cc(C)c(C)cc65)C4O)C4(C)N=C1C(CCC(N)=O)C4(C)CC(N)=O)C(CCC(N)=O)C\3(C)C)C(CCC(N)=O)C/2(C)CC(N)=O.[C-]#N.[Co] (stereo not given) | inactive: 0.156% [at 29.8 µM] |
| OCCSCCO | inactive: 26.1% |
| Cc1cccc([N+](=O)[O-])c1[N+](=O)[O-] | inactive: 5.76% [at 114 µM] |
| CCOP(=O)(CC)Oc1ccc([N+](=O)[O-])cc1 (stereo not given) | inactive: 2.5% |
